Only some compounds are listed: those with a hit (about 2.2% of all), similar ones and a draw of the others.
ERp5 inh: inhibitors of human ERp5; Q15084; ERp5 insulin aggregation, absorbance 650 nm, 90 min; inhibition, % at 9.99 µM; 350,000 tested, 0.05% active; AID 651711;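 active = mean replicate inhibition above about 25%, with every replicate also reaching it, limit read from the data, passing the limit was not always enough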
Yeast UUG start: modulators of start codon recognition fidelity in yeast. S. cerevisiae UUG-firefly luciferase reporter, luminescence/redox ratio. activity score, % at 18.7 µM. 0.13% of 350,000 active. AID 602363;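 active = replicate mean at a twofold rise or more, about +100% in these data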;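 also: firefly luciferase made from a UUG start codon reports start codon fidelity; reporter light over untreated wells divided by growth signal over untreated wells; some hits fall short of that in this replicate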
FGF22 binding-1: shifts melting point of recombinant human FGF22; Q9HCT0; activity (Tm shift, normalised), % at 9.99 µM; recombinant FGF22 thermal shift, SYPRO orange fluorescence; percent of sucrose octasulfate shift, DMSO zero; 340,000 tested, 1.5% active;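 active = mean Tm shift, scaled 0 neutral to 100 positive control, at about 1.3% or above, every replicate too, limit read from the data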
PDI inh: PDI (human) enzyme inhibition; P07237; PDI insulin aggregation turbidity, A650, 90 min; inhibition, % at 10 µM; 350,000 tested, 0.052% active; AID 588391;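 active = mean inhibition across replicates of 30% or more, whatever share of single replicates reach that level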
SIRT5 block: sirtuin-5 (human) deacylase inhibition. Q9NXA8. Purified SirT5, succinyl-peptide AMC, trypsin-coupled fluorescence. inhibition, % at 15 µM. 330,000 tested, 1.1% active. AID 652115; in the data active = inhibition above about 15%
S100A4 MyoIIA: inhibitors of human S100A4 binding to myosin IIA peptide; P26447; S100A4/TAMRA-MyoIIA peptide fluorescence polarization; inhibition, % at 10.7 µM; 360,000 tested, 0.14% active; AID 652163;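 active = mean inhibition of at least 70% across replicates, with every replicate also reaching that level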
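Material: S100A4 monomer (human). Medium: Calcium-containing HEPES buffer, pH 7.2. Probe or stimulus: labelled myosin peptide probe, 5 nM. Compound dosing: one concentration per compound. Timing: polarization read 5 min after assay mix addition, stable 5–60 min. Benchmarks: DMSO as neutral control, TFP as positive control.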
FGF22 binding-2: binds human FGF22 shifting its melting temperature; 1,000 tested, 2% active; thermal shift activity, °C (ΔTm) at 38 µM; shares compounds with FGF22 binding-1; recombinant FGF22 thermal shift, SYPRO orange fluorescence;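 active = fitted rise in melting shift crosses a set limit at or below the top valid dose tested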
TSA no protein: counter-screen for FGF22 binders: compound-only thermal shift, no protein. shares compounds with FGF22 binding-1. compound-only SYPRO orange thermal shift counter-screen. AC50, µM (top dose mostly 38 µM). 1,000 tested, 2% active;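 active = rising signal whose fitted curve reaches the 0.54 level within the top valid dose, showing a melting point, actives reach about 13 µM in these data; inactive = the rest, including activity in the opposite direction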; note: value is where the raw curve crosses a fixed level and not half-maximal
* = called active by the depositor; i = inactive; x = no result given; ! = not active in a repeat; [ ] = remark or other dose.

Order of results – ERp5 inh	Yeast UUG start	FGF22 binding-1	PDI inh	SIRT5 block	S100A4 MyoIIA	FGF22 binding-2	TSA no protein
- Oc1cc(O)cc(-c2cc3ccc(O)cc3o2)c1
  -1	-46	2.1*	x	x	2	0.007	i
- COc1ccc2c(CC(=O)NNC(=O)c3ccc(O)cc3)coc2c1
  2	1	1.6*	1	x	-3	-0.38	i
- C[C@H](CO)N1C[C@H](C)[C@H](CN(C)Cc2ccccc2)OCCCC[C@H](C)Oc2ccc(NC(=O)Nc3ccc(C(F)(F)F)cc3)cc2C1=O
  0	11	-1	x	3	-1	x	x
- CC(C)(C)NC(=O)CN(C(=O)CNS(=O)(=O)c1ccc(Cl)cc1)c1ccc2c(c1)OCCO2
  -1	-2	40*	-2	-1	-5	0.1	i
- CC(C)(C)NC(=O)CN(C(=O)CNS(=O)(=O)c1ccccc1)c1ccc2c(c1)OCCO2
  x	-20	x	-3	x	x	x	x
- CCCNC(=O)C[C@H]1CC[C@@H]2[C@H](COc3ccc(NC(=O)c4cscn4)cc3C(=O)N2C)O1
  4	0	0	x	0	0	x	x
- c1ccc(NCc2ccccn2)cc1
  1	x	1.4*	3	-8	3	0.23	i
- Cc1cccc(OC(C)C(=O)Nc2ccc3c(c2)OCCO3)c1 (stereo not drawn)
  8	-13	2.1*	-5	1	7	-0.029	i
- CO[C@@H]1CN(C)C(=O)c2cc(NC(=O)Cc3ccccc3)ccc2OC[C@H](C)N(C(C)=O)C[C@@H]1C
  0	x	0	x	-6	2	x	x
- C[C@@H]1CN([C@@H](C)CO)C(=O)c2cc(Br)cnc2O[C@H]1CN(C)C(=O)C1CC1
  3	13	2.4*!	-4	5	-3	0.093	i
- C[C@H](CO)N1C[C@H](C)[C@@H](CN(C)C(=O)C2CC2)Oc2ncc(Br)cc2C1=O
  x	-7	x	x	x	x	x	x
- C[C@H]1CN([C@@H](C)CO)C(=O)c2cc(C3=CCCC3)cnc2O[C@@H]1CN(C)C(=O)CN(C)C
  -3	4	0	x	1	-1	x	x
- C[C@H]1CN([C@@H](C)CO)C(=O)c2cc(C3=CCCC3)cnc2O[C@H]1CN(C)C(=O)CN(C)C
  -3	12	1.4*	x	4	-1	0.001	i
- CCC(=O)N1CC2(CN(C(=O)CN3CCOCC3)C2)c2c([nH]c3cc(OC)ccc23)[C@H]1CO
  7	x	0	x	8	-21	x	x
- Cc1ccccc1S(=O)(=O)N(C)C[C@@H]1OCc2ccccc2-c2ccccc2C(=O)N([C@H](C)CO)C[C@H]1C
  0	x	0	x	8	3	x	x
- COCCNC(=O)C[C@@H]1CC[C@@H]2[C@H](COC[C@H](O)CN2C(=O)Nc2ccccc2OC)O1
  0	x	0	x	3	9	x	x
- Cc1ccc(S(=O)(=O)Nc2ccc3c(c2)CC(=O)N([C@@H](C)CO)C[C@H](C)[C@@H](CN(C)S(C)(=O)=O)O3)cc1
  -7	25	2.2*	x	3	6	0.029	i
- C[C@H]1CN([C@@H](C)CO)C(=O)Cc2cc(NS(=O)(=O)c3ccc(F)cc3)ccc2O[C@H]1CN(C)CC1CCCCC1
  0	11	12*	x	17*	39	0.12	i
- Cc1noc(C)c1S(=O)(=O)Nc1ccc2c(c1)CC(=O)N([C@@H](C)CO)C[C@@H](C)[C@@H](CN(C)Cc1ccc(Cl)c(Cl)c1)O2
  0	18	1.5*	x	5	-1	0.11[42 µM]	i
- Cc1noc(C)c1S(=O)(=O)Nc1ccc2c(c1)CC(=O)N([C@@H](C)CO)C[C@@H](C)[C@H](CN(C)Cc1ccc(Cl)c(Cl)c1)O2
  9	13	0	x	4	-6	x	x
- Cc1ccc(S(=O)(=O)Nc2ccc3c(c2)CC(=O)N([C@@H](C)CO)C[C@@H](C)[C@H](CN(C)S(C)(=O)=O)O3)cc1
  13	11	-1	x	-2	-2	x	x
- CCCNC(=O)N1CC2(CCN(C(=O)c3cnccn3)CC2)c2c([nH]c3cc(OC)ccc23)[C@H]1CO
  2	x	0	x	4	7	x	x
- C/C=C/c1ccc([C@@H]2[C@H](CO)N(Cc3cccc(F)c3)C23CN(C(=O)CC)C3)cc1
  4	x	0	x	-1	-33	x	x
- C[C@H](CO)N1C[C@H](C)[C@H](CN(C)C(=O)Nc2ccccc2)Oc2ccc(NC(=O)Nc3ccccc3)cc2CC1=O
  -4	-2	1.2*	x	3	-1	0.13	i
- COc1ccc(NC(=O)N(C)C[C@H]2Oc3ccc(NS(C)(=O)=O)cc3CC(=O)N([C@H](C)CO)C[C@@H]2C)cc1
  -9	-13	0	x	-3	5	x	x
- COc1ccc(NC(=O)N(C)C[C@@H]2Oc3ccc(NS(C)(=O)=O)cc3CC(=O)N([C@@H](C)CO)C[C@H]2C)cc1
  -17	-12	16*	x	0	-8	0.14[42 µM]	i
- C[C@@H]1CN([C@@H](C)CO)S(=O)(=O)c2ccc(C3=CCCCC3)cc2O[C@H]1CN(C)C(=O)CN(C)C
  1	20	1.3*	x	7	-46	0.82	i
- C[C@H]1CN([C@@H](C)CO)S(=O)(=O)c2ccc(C3=CCCCC3)cc2O[C@@H]1CN(C)C(=O)CN(C)C
  0	22	1	x	6	-48	x	x
- C[C@@H]1CN([C@@H](C)CO)S(=O)(=O)c2ccc(C3=CCCC3)cc2O[C@@H]1CN(C)C(=O)C1CCCCC1
  -2	-22	1.5*	x	4	6	-0.032	i
- C[C@@H]1CN([C@H](C)CO)S(=O)(=O)c2ccc(-c3cncnc3)cc2O[C@@H]1CN(C)C(=O)CN(C)C
  -1	4	15*	x	2	0	0.11	i

(continued)
Letters: A = ERp5 inh; B = Yeast UUG start; C = FGF22 binding-1; D = PDI inh; E = SIRT5 block; F = S100A4 MyoIIA; G = FGF22 binding-2; H = TSA no protein
C[C@H](CO)N1C[C@H](C)[C@@H](CN(C)C(=O)CN(C)C)Oc2cc(C3=CCCCC3)ccc2S1(=O)=O
  A: 0 | B: 15 | C: 1.6* | D: x | E: 5 | F: 1 | G: 0.12[42 µM] | H: i

C[C@@H]1CN([C@H](C)CO)S(=O)(=O)c2ccc(C3=CCCC3)cc2O[C@@H]1CN(C)C(=O)C1CCCCC1
  A: -2 | B: 11 | C: -1 | D: x | E: 4 | F: 9 | G: x | H: x

O=C(N[C@@H]1CC[C@H](CCNS(=O)(=O)c2cccc(Cl)c2)O[C@H]1CO)c1ccccc1
  A: x | B: x | C: x | D: x | E: x | F: -1 | G: x | H: x

O=C(N/N=C/c1ccc(O)c(O)c1)N/N=C/c1ccc(O)c(O)c1
  A: 2 | B: -15 | C: 1.4* | D: -21 | E: 8 | F: 1 | G: 0.13 | H: i

Cc1nonc1C(=O)N/N=C/c1ccc(O)c(O)c1
  A: x | B: -14 | C: x | D: 4 | E: x | F: x | G: x | H: x

CO[C@@H]1CN(C)C(=O)c2cc(NC(C)=O)ccc2OC[C@H](C)N(CCC(F)(F)F)C[C@@H]1C
  A: 1 | B: 6 | C: 0 | D: x | E: 9 | F: -51 | G: x | H: x

Among those listed so far, 4 have a Cl atom:
Letters: A = ERp5 inh; B = Yeast UUG start; C = FGF22 binding-1; D = PDI inh; E = SIRT5 block; F = S100A4 MyoIIA; G = FGF22 binding-2; H = TSA no protein
CC(C)(C)NC(=O)CN(C(=O)CNS(=O)(=O)c1ccc(Cl)cc1)c1ccc2c(c1)OCCO2
  A: -1 | B: -2 | C: 40* | D: -2 | E: -1 | F: -5 | G: 0.1 | H: i

Cc1noc(C)c1S(=O)(=O)Nc1ccc2c(c1)CC(=O)N([C@@H](C)CO)C[C@@H](C)[C@@H](CN(C)Cc1ccc(Cl)c(Cl)c1)O2
  A: 0 | B: 18 | C: 1.5* | D: x | E: 5 | F: -1 | G: 0.11[42 µM] | H: i

Cc1noc(C)c1S(=O)(=O)Nc1ccc2c(c1)CC(=O)N([C@@H](C)CO)C[C@@H](C)[C@H](CN(C)Cc1ccc(Cl)c(Cl)c1)O2
  A: 9 | B: 13 | C: 0 | D: x | E: 4 | F: -6 | G: x | H: x

O=C(N[C@@H]1CC[C@H](CCNS(=O)(=O)c2cccc(Cl)c2)O[C@H]1CO)c1ccccc1
  A: x | B: x | C: x | D: x | E: x | F: -1 | G: x | H: x

From PubChem BioAssay
